Chains of the proteins cited; added tags and fusions are not shown.
UniProt O94782, whole entry: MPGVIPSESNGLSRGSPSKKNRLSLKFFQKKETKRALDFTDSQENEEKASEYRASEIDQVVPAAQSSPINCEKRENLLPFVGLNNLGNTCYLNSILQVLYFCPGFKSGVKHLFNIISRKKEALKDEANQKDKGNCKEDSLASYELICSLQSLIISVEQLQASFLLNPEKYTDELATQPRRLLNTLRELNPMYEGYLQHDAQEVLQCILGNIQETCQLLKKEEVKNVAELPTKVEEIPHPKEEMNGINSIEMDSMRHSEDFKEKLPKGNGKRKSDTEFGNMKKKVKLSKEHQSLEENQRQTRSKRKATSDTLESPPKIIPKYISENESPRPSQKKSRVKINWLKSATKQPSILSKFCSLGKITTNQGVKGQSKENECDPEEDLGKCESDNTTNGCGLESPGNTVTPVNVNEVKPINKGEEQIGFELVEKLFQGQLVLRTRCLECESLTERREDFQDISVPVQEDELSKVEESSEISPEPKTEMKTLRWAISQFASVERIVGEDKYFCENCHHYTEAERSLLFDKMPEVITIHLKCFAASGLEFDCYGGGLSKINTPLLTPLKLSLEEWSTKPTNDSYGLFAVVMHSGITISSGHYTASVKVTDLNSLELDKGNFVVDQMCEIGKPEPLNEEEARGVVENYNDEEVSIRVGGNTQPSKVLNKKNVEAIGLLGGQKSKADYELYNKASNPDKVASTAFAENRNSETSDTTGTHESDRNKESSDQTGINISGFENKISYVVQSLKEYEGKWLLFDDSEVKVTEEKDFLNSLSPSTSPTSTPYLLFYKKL
UniProt Q8TAF3, whole entry partner: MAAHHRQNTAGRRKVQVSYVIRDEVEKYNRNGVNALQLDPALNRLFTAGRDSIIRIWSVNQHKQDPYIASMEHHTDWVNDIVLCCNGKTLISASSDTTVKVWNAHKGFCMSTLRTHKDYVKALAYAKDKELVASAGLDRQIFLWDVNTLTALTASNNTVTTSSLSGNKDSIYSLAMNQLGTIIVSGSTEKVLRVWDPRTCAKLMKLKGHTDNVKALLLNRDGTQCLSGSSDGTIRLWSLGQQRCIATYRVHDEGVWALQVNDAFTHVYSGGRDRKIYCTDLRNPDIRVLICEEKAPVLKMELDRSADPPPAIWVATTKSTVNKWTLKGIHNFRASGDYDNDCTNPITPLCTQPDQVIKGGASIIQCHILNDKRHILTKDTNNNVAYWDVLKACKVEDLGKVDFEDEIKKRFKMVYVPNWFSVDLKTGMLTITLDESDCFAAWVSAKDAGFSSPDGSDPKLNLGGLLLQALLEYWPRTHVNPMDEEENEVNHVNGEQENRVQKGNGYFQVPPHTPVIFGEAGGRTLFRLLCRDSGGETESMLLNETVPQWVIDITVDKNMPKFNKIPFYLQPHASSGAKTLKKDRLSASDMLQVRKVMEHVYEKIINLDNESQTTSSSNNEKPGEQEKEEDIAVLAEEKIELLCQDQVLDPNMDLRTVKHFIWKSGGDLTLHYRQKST

According to patent US20240092779A1, “USP1 INHIBITORS AND USES THEREOF” (Zentaur Therapeutics USA Inc., priority 2022, published 2024):

Tests used:
[1] = target: recombinant USP1/UAF1 enzyme complex (Homo sapiens, UniProt O94782); experiment: Enzyme assay: deubiquitinase fluorometric assay with ubiquitin-Rhodamine substrate; format: biochemical; conditions: read-out: enzyme; USP1/UAF1, Ub-Rho110 substrate, 2 hours preincubation, 1 hour reaction
HCC1806 Ub-PCNA (USP1) = experiment: USP1 Western Blot Protocol (HCC1806 Ub-PCNA); format: cell-based; conditions: read-out: HCC1806 Ub-PCNA, HCC1806 cells, 4 hours
MDA-MB-436 cells = experiment: CTG Protocol (MDA-MB-436 GI50), antiproliferative activity; format: cell-based, human; conditions: read-out: MDA-MB-436 GI50; MDA-MB-436 cells (BRCA1 mutation), 7-day incubation, CellTiter-Glo

CC(C)n1ncc(Cl)c1-c1ncc2ccc(=O)n(Cc3ccc(-c4nc(C(F)(F)F)cn4C4CC4)cc3)c2n1
pIC50 [1]: 6.00 to 7.00 | pIC50 (HCC1806 Ub-PCNA (USP1)): 7.00 to 8.00 | GI50 (MDA-MB-436 cells): 0.01 to 0.1 µM

COc1ncnc(C2CC2)c1-c1ncc2cc(Cl)c(=O)n(Cc3ccc(-c4nc(C(F)(F)F)cn4C4CC4)cc3)c2n1
pIC50 [1]: 7.00 to 8.00 | pIC50 (HCC1806 Ub-PCNA (USP1)): 7.00 to 8.00 | GI50 (MDA-MB-436 cells): 0.01 to 0.1 µM

COc1cc(Cn2c(=O)cnc3cnc(-c4c(OC)ncnc4C4CC4)nc32)ccc1-c1nc(C(F)(F)F)cn1C(C)C [Compound I-118]
pIC50 [1]: 7.00 to 8.00 | pIC50 (HCC1806 Ub-PCNA (USP1)): 7.00 to 8.00 | GI50 (MDA-MB-436 cells): 0.01 to 0.1 µM

COc1ncnc(C2CC2)c1-c1ncc2c(n1)N(Cc1ccc(-c3nc(C(F)(F)F)cn3C)cc1)CCN2
pIC50 [1]: 6.00 to 7.00 | pIC50 (HCC1806 Ub-PCNA (USP1)): 6.00 to 7.00 | GI50 (MDA-MB-436 cells): 0.1 to 1 µM

CC(C)n1cc(C(F)(F)F)nc1-c1ccc(Cn2c(=O)c(C3=CCN(C)CC3)cc3cnc(-c4c(OC(F)F)ncnc4C4CC4)nc32)cc1
pIC50 [1]: > 8.00 | pIC50 (HCC1806 Ub-PCNA (USP1)): 7.00 to 8.00 | GI50 (MDA-MB-436 cells): 0.01 to 0.1 µM

COC(=O)c1cc2cnc(-c3c(OC)ncnc3C3CC3)nc2n(Cc2ccc(-c3nc(C(F)(F)F)cn3C)cc2)c1=O
pIC50 [1]: 7.00 to 8.00 | GI50 (MDA-MB-436 cells): 0.1 to 1 µM

CC(C)n1cc(C(F)(F)F)nc1-c1ccc(Cn2c(=O)c(C3CCN(C)CC3)cc3cnc(-c4c(OC(F)F)ncnc4C4CC4)nc32)cc1
pIC50 [1]: > 8.00 | pIC50 (HCC1806 Ub-PCNA (USP1)): 7.00 to 8.00 | GI50 (MDA-MB-436 cells): 0.01 to 0.1 µM

O=c1ccc2cnc(-c3c(OC(F)F)ncnc3C3CC3)nc2n1Cc1ccc(-c2nc(C(F)(F)F)cn2C2CC2)cc1 [Compound I-103]
pIC50 [1]: 7.00 to 8.00 | pIC50 (HCC1806 Ub-PCNA (USP1)): 7.00 to 8.00 | GI50 (MDA-MB-436 cells): < 0.01 µM

COc1ncnc(C2CC2)c1-c1ncc2cc(C(C)(C)O)c(=O)n(Cc3ccc(-c4nc(C(F)(F)F)cn4C4CC4)cc3)c2n1 [Compound I-109]
pIC50 [1]: 6.00 to 7.00 | pIC50 (HCC1806 Ub-PCNA (USP1)): 7.00 to 8.00 | GI50 (MDA-MB-436 cells): 0.01 to 0.1 µM

CCn1cc(C(F)(F)F)nc1-c1ccc(CN2CCOc3cnc(-c4c(OC)ncnc4C4CC4)nc32)cc1
pIC50 [1]: 7.00 to 8.00 | pIC50 (HCC1806 Ub-PCNA (USP1)): 7.00 to 8.00 | GI50 (MDA-MB-436 cells): < 0.01 µM

COc1ncnc(C2CC2)c1-c1ncc2ccc(=O)n(Cc3ccc(-c4nc(C(F)(F)F)cn4C4CC4)cc3)c2n1
pIC50 [1]: 7.00 to 8.00 | pIC50 (HCC1806 Ub-PCNA (USP1)): > 8.00 | GI50 (MDA-MB-436 cells): < 0.01 µM

COc1ncnc(C2CC2)c1-c1ncc2cc(C3=CCN(C)CC3)c(=O)n(Cc3ccc(-c4nc(C(F)(F)F)cn4C(C)C)cc3)c2n1 [Compound I-106]
pIC50 [1]: > 8.00 | pIC50 (HCC1806 Ub-PCNA (USP1)): 7.00 to 8.00 | GI50 (MDA-MB-436 cells): < 0.01 µM

COc1ncnc(C2CC2)c1-c1ncc2c(n1)N(Cc1ccc(-c3nc(C(F)(F)F)cn3C)cc1)C(=O)CO2
GI50 (MDA-MB-436 cells): 0.1 to 1 µM

COc1ncnc(C2CC2)c1-c1ncc2ccc(=O)n(Cc3ccc(-n4nc(C(F)(F)F)cc4OC)cc3)c2n1 [Compound I-110]
pIC50 [1]: 7.00 to 8.00 | pIC50 (HCC1806 Ub-PCNA (USP1)): > 8.00 | GI50 (MDA-MB-436 cells): < 0.01 µM

COc1ncnc(C2CC2)c1-c1ncc2ccc(=O)n(CC3CCN(c4nc(C(F)(F)F)cn4C4CC4)CC3)c2n1
pIC50 [1]: 7.00 to 8.00 | GI50 (MDA-MB-436 cells): 0.01 to 0.1 µM

COc1ncnc(C2CC2)c1-c1cc2c(cn1)NC(=O)CN2Cc1ccc(-c2nc(C(F)(F)F)cn2C)cc1
pIC50 [1]: 7.00 to 8.00 | pIC50 (HCC1806 Ub-PCNA (USP1)): 6.00 to 7.00 | GI50 (MDA-MB-436 cells): 0.1 to 1 µM

COc1cc(Cn2c(=O)ccc3cnc(-c4c(OC)ncnc4C4CC4)nc32)cc(F)c1-c1nc(C(F)(F)F)cn1C(C)C [Compound I-22, 2-(4-cyclopropyl-6-methoxypyrimidin-5-yl)-8-({3-fluoro-4-[1-isopropyl-4-(trifluoromethyl)imidazol-2-yl]-5-methoxyphenyl}methyl)pyrido[2,3-d]pyrimidin-7-one]
pIC50 [1]: 7.00 to 8.00 | pIC50 (HCC1806 Ub-PCNA (USP1)): 7.00 to 8.00 | GI50 (MDA-MB-436 cells): < 0.01 µM

COc1ncnc(OC)c1-c1ncc2ccc(=O)n(Cc3ccc(-c4nc(C(F)(F)F)cn4C4CC4)cc3)c2n1 [Compound I-102]
pIC50 [1]: 7.00 to 8.00 | pIC50 (HCC1806 Ub-PCNA (USP1)): 7.00 to 8.00 | GI50 (MDA-MB-436 cells): 0.01 to 0.1 µM

COc1ncnc(C2CC2)c1-c1ncc2ccc(=O)n(Cc3ccc(-c4nc(C(F)(F)F)cn4C(C)C)c(F)c3OC)c2n1 [Compound I-23, 2-(4-cyclopropyl-6-methoxypyrimidin-5-yl)-8-({3-fluoro-4-[1-isopropyl-4-(trifluoromethyl)imidazol-2-yl]-2-methoxyphenyl}methyl)pyrido[2,3-d]pyrimidin-7-one]
pIC50 [1]: 7.00 to 8.00 | pIC50 (HCC1806 Ub-PCNA (USP1)): 7.00 to 8.00 | GI50 (MDA-MB-436 cells): < 0.01 µM

COc1cc(Cn2c(=O)ccc3cnc(-c4c(OC(F)F)ncnc4C4CC4)nc32)cc(F)c1-c1nc(C(F)(F)F)cn1C1CC1
pIC50 [1]: 7.00 to 8.00 | GI50 (MDA-MB-436 cells): 0.01 to 0.1 µM

COc1ncnc(C2CC2)c1-c1cc2c(cn1)OCC(=O)N2Cc1ccc(-c2nc(C(F)(F)F)cn2C)cc1
pIC50 [1]: 7.00 to 8.00 | pIC50 (HCC1806 Ub-PCNA (USP1)): 7.00 to 8.00 | GI50 (MDA-MB-436 cells): 0.01 to 0.1 µM

COc1ncnc(C2CC2)c1-c1ncc2cc(C3CCN(C)CC3)c(=O)n(Cc3ccc(-c4nc(C(F)(F)F)cn4C4CC4)cc3)c2n1 [Compound I-111]
pIC50 [1]: > 8.00 | pIC50 (HCC1806 Ub-PCNA (USP1)): 7.00 to 8.00 | GI50 (MDA-MB-436 cells): < 0.01 µM

COc1ncnc(C2CC2)c1-c1cc2c(cn1)OCCN2Cc1ccc(-c2nc(C(F)(F)F)cn2C)cc1
pIC50 [1]: 7.00 to 8.00 | pIC50 (HCC1806 Ub-PCNA (USP1)): 7.00 to 8.00 | GI50 (MDA-MB-436 cells): 0.01 to 0.1 µM

COc1ncnc(C2CC2)c1-c1ncc2cc(C3(O)CCN(C)CC3)c(=O)n(Cc3ccc(-c4nc(C(F)(F)F)cn4C(C)C)cc3)c2n1
pIC50 [1]: > 8.00 | pIC50 (HCC1806 Ub-PCNA (USP1)): 7.00 to 8.00 | GI50 (MDA-MB-436 cells): 0.01 to 0.1 µM

COc1cc(Cn2c(=O)cnc3cnc(-c4c(OC)ncnc4C4CC4)nc32)cc(F)c1-c1nc(C(F)(F)F)cn1C(C)C [Compound I-107]
pIC50 [1]: 7.00 to 8.00 | pIC50 (HCC1806 Ub-PCNA (USP1)): > 8.00 | GI50 (MDA-MB-436 cells): 0.01 to 0.1 µM

COc1ncnc(C2CC2)c1-c1ncc2nc(N3CCN(C)CC3)c(=O)n(Cc3ccc(-c4nc(C(F)(F)F)cn4C4CC4)cc3)c2n1 [Compound I-97]
pIC50 [1]: > 8.00 | pIC50 (HCC1806 Ub-PCNA (USP1)): > 8.00 | GI50 (MDA-MB-436 cells): 0.01 to 0.1 µM

COc1ncnc(C2CC2)c1-c1ncc2cc(C3CCN(C)CC3)c(=O)n(Cc3ccc(-c4nc(C(F)(F)F)cn4C)cc3)c2n1
pIC50 [1]: > 8.00 | pIC50 (HCC1806 Ub-PCNA (USP1)): 7.00 to 8.00 | GI50 (MDA-MB-436 cells): 0.01 to 0.1 µM

COc1ncnc(C2CC2)c1-c1cc2c(cn1)ncc(=O)n2Cc1ccc(-c2nc(C(F)(F)F)cn2C)cc1
pIC50 [1]: 6.00 to 7.00 | pIC50 (HCC1806 Ub-PCNA (USP1)): 6.00 to 7.00 | GI50 (MDA-MB-436 cells): 0.1 to 1 µM

COc1ncnc(C2CC2)c1-c1ncc2ccc(=O)n(Cc3ccc(-c4nc(C(F)(F)F)cn4CCN4CCN(C)CC4)cc3)c2n1
pIC50 [1]: 7.00 to 8.00 | pIC50 (HCC1806 Ub-PCNA (USP1)): > 8.00 | GI50 (MDA-MB-436 cells): 0.01 to 0.1 µM

COc1ncnc(C2CC2)c1-c1ncc2c(n1)N(Cc1ccc(-c3nc(C(F)(F)F)cn3C(C)C)cc1)C(=O)CO2
pIC50 [1]: 7.00 to 8.00 | pIC50 (HCC1806 Ub-PCNA (USP1)): 7.00 to 8.00 | GI50 (MDA-MB-436 cells): 0.01 to 0.1 µM

COc1cc(Cn2c(=O)ccc3cnc(-c4c(OC)ncnc4OC)nc32)cc(F)c1-c1nc(C(F)(F)F)cn1C(C)C [Compound I-113]
pIC50 [1]: 7.00 to 8.00 | pIC50 (HCC1806 Ub-PCNA (USP1)): > 8.00 | GI50 (MDA-MB-436 cells): 0.01 to 0.1 µM

CCn1cc(C(F)(F)F)nc1-c1ccc(CN2C(=O)COc3cnc(-c4c(OC)ncnc4C4CC4)nc32)cc1
pIC50 [1]: 7.00 to 8.00 | pIC50 (HCC1806 Ub-PCNA (USP1)): > 8.00 | GI50 (MDA-MB-436 cells): 0.01 to 0.1 µM

COc1ncnc(C2CC2)c1-c1ncc2c(n1)N(Cc1ccc(-c3nc(C(F)(F)F)cn3C(C)C)cc1)CCO2
pIC50 [1]: 7.00 to 8.00 | pIC50 (HCC1806 Ub-PCNA (USP1)): 7.00 to 8.00 | GI50 (MDA-MB-436 cells): 0.01 to 0.1 µM

COc1ncnc(C2CC2)c1-c1ncc2ncc(=O)n(Cc3ccc(-c4nc(C(F)(F)F)c[nH]4)cc3)c2n1
pIC50 [1]: 7.00 to 8.00 | pIC50 (HCC1806 Ub-PCNA (USP1)): 7.00 to 8.00 | GI50 (MDA-MB-436 cells): 0.01 to 0.1 µM

pIC50: −log10 of the molar value.
